Publication PMC4850247

Protein sequences, listed by entry. Tags and fused reporters are not part of them. Lines headed by an entry give the natural chain unless they say otherwise; changes in a name come on top. Residues count along the entry.
UniProt Q5VVQ6: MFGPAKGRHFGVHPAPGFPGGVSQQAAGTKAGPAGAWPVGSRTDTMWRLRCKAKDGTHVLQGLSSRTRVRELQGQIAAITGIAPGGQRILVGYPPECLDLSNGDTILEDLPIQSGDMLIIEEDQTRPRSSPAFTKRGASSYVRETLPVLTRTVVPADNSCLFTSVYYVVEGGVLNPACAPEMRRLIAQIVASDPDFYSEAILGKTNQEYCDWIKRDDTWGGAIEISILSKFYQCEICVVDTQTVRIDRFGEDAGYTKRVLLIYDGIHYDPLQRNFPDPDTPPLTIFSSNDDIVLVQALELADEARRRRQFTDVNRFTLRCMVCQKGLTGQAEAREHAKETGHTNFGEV
UniProt Q5T2D3, 52-209: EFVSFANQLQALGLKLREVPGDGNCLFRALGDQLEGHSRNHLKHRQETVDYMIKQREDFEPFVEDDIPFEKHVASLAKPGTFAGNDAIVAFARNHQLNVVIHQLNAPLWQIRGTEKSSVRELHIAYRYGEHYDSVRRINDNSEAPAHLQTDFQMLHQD

Experiments:
[1] = molecular target: Full-length human OTUD2 (human) (UniProt Q5VVQ6)
[2] = molecular target: OTUD3 (aa 52-209) (human) (UniProt Q5T2D3)

KM of AMC release from mUb-AMC (Michaelis-Menten, 15 nM OTUD2, substrate up to 20 μM) [1]: > 100 µM | KM of AMC release from mUb-AMC (Michaelis-Menten, 15 nM OTUD3) [2]: 3.1 µM
Substance: Ub-7-amido-4-methylcoumarin (mUb-AMC) (from UniProt P0CG48 1-76)
